From patent US7012090B1, “Pyranoindoles for treating glaucoma” (Alcon, Inc., priority 2000, dated 2006)

Sequences of proteins named here, by UniProt entry; tags and fusion partners are left off.
UniProt P14842, whole entry: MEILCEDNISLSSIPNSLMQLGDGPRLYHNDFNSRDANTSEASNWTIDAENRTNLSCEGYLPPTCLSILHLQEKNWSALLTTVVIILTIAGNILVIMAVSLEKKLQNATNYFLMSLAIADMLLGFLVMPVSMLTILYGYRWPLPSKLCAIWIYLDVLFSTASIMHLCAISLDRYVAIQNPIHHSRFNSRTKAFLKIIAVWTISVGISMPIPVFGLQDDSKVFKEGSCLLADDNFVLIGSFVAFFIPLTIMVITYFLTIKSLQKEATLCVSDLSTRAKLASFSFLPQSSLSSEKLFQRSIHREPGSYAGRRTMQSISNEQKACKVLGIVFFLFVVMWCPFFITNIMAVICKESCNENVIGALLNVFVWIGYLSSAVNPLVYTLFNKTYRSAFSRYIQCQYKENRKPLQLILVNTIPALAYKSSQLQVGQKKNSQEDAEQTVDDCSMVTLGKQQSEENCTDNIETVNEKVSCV

Target: T1, 5-HT2 receptor (Rattus norvegicus, UniProt P14842)
T1 construct: [^3H]myo-inositol-labeled A7r5 rat vascular smooth muscle cells; endogenous in cells; host or cells: A7r5 rat vascular smooth muscle cells
Assay: 5-HT2 Functional Assay: Phosphoinositide (PI) Turnover Assay
Format: cell-based
Settings: A7r5 cells, relative to 5-HT set at 100%
Experimental: 5-HT2 Functional Assay: Phosphoinositide (PI) Turnover Assay
The relative agonist activity of serotonergic compounds at the 5-HT2 receptor can be determined in vitro using the ability of the compounds to stimulate the production of [^3H]inositol phosphates in [^3H]myo-inositol-labeled A7r5 rat vascular smooth muscle cells by their ability to activate the enzyme phospholipase C. These cells are grown in culture plates, maintained in a humidified atmosphere of 5% CO2 and 95% air and fed semi-weekly with Dulbecco's modified Eagle medium (DMEM) containing 4.5 g/l glucose and supplemented with 2 mM glutamine, 10 μg/ml gentamicin, and 10% fetal bovine serum. For the purpose of conducting the phosphoinositide (PI) turnover experiments, the A7r5 cells are cultured in 24-well plates as previously [J. Pharmacol. Expt. Ther., 286, 411 (1998)]. Confluent cells are exposed for 24-30 hrs to 1.5 μCi [^3H]-myo-inositol (18.3 Ci/mmol) in 0.5 ml of serum-free medium. […] The eluate (4 ml) is collected, mixed with 15 ml scintillation fluid, and the total [^3H]-IPs determined by scintillation counting on a beta-counter. Concentration-response data are analyzed by the sigmoidal fit function of the Origin Scientific Graphics software (Microcal Software, Northampton, Mass.) to determine agonist potency (EC50 value) and efficacy (Emax). […]

Structure (SMILES): COc1cc(C[C@@H](C)N)c(OC)cc1I [(R)-DOI, reference compound]
- Efficacy (Emax, %): 82%
